Structures can show the parent of a compound that is named as a salt. ± gives the uncertainty stated by the source.
Legend:
[1] = test system: KeratinoSens (HaCaT ARE-luciferase) cells; test: cytotoxicity AC50 (CellTiter-Fluor viability); higher = less cytotoxic; conditions: exposure time: 24 h
THP-1 [2] = test: efficacy of IL-8 induction relative to DMSO (% activity); higher = stronger induction; conditions: exposure time: 18 h
[3] = test system: KeratinoSens (HaCaT ARE-luciferase) cells; test: efficacy of ARE luciferase induction relative to DMSO (% activity over DMSO); higher = stronger induction; conditions: exposure time: 24 h
[4] = test system: lysine peptide Ac-RFAAKAA-COOH; test: efficacy of lysine peptide change (negative = depletion) (% activity); higher = less depletion; conditions: incubation time: 24 h
[5] = test system: cysteine peptide Ac-RFAACAA-COOH; test: AC50 of cysteine peptide concentration-response (direction given by sign of efficacy); higher = less potent; conditions: incubation time: 24 h
[6] = test system: cysteine peptide Ac-RFAACAA-COOH; test: efficacy of cysteine peptide change (negative = depletion) (% activity); higher = less depletion; conditions: incubation time: 24 h
THP-1 [7] = test: AC50 of IL-8 secretion induction; higher = less potent; conditions: exposure time: 18 h
[8] = test system: KeratinoSens (HaCaT ARE-luciferase) cells; test: AC50 of Nrf2/ARE luciferase induction; higher = less potent; conditions: exposure time: 24 h

| Compound | cytotoxicity AC50 [1] [µM] | efficacy of IL-8 induction (THP-1 [2]) | efficacy of ARE luciferase induction [3] | efficacy of lysine peptide change [4] | AC50 [5] [µM] | efficacy of cysteine peptide change [6] | AC50 of IL-8 secretion induction (THP-1 [7]) [µM] | AC50 of Nrf2/ARE luciferase induction [8] [µM] |
| --- | --- | --- | --- | --- | --- | --- | --- | --- |
| Nc1cccc2ccccc12 [1-Naphthylamine] | 48.3 ± 3.1 | 6.81 ± 6.4 | 7.83 ± 14 | -7.53 ± 14 | 1.13 ± 0.13 | -74.3 ± 4.4 |  |  |
| CCC[CH2][Sn]([Cl])([CH2]CCC)[CH2]CCC [Tributyltin chloride] | 8.27 ± 0.56 | 50.9 ± 8 | 475 ± 98 | 25.2 ± 7.1 |  | 127 ± 65 | 16.9 | 8.63 |
| CN1CCCN=C1/C=C/c1cccs1 [Pyrantel tartrate] |  | 6.24 ± 6.5 | 23.7 ± 31 | 61 ± 9.5 |  | 3.83 ± 6.6 |  |  |
| NNc1nncc2ccccc12 [Hydralazine hydrochloride] | 63.9 ± 12 | 35.5 ± 3.4 | 50.9 ± 25 | -22.2 ± 1.9 |  | -16.5 ± 11 |  | 27.8 |
| CCOC(=S)S [Potassium ethyl xanthate] |  | 47.9 ± 18 | 133 ± 110 | -9.96 ± 12 | 89.5 ± 10 | -105 ± 10 |  | 63.9 |
| CN(C)C(=S)[S-].CN(C)C(=S)[S-].[Zn+2] [Ziram] | 4.14 ± 0.28 | 96.2 ± 15 | -34.2 ± 4.8 | -5.71 ± 9.9 | 34 ± 23 | -44.2 ± 10 | 5.44 |  |
| Oc1ccc(O)cc1 [Hydroquinone] | 48.7 ± 19 | 41.3 ± 19 | 109 ± 270 | -19.3 ± 5.9 | 17.6 ± 8.3 | -111 ± 8 |  |  |
| Cn1c(=O)c2c(ncn2C)n(C)c1=O [Caffeine] |  | 2.79 ± 4.8 | 39.2 ± 43 | -8.46 ± 8.2 |  | -10.6 ± 5.6 |  |  |
| CC(=O)[O-].CC(=O)[O-].[Hg+2] [Mercury(II) acetate] | 4.92 ± 1.2 | 17.6 ± 5.9 | 175 ± 300 | -21 ± 8.9 | 7.43 ± 2.6 | -98.1 ± 11 |  |  |
| O=[N+]([O-])[O-].[K+] [Potassium nitrate] |  | 0 | 7.32 ± 10 | -4.43 ± 7.7 |  | 0 |  |  |
| C=CC(=O)OCCOc1ccccc1 [2-Phenoxyethyl acrylate] | 55.2 ± 14 | 15 ± 7.2 | 92.8 ± 52 | 14.4 ± 6.6 | 48.3 ± 3.1 | -106 ± 3 |  | 50.1 |
| CC(O)C(=O)[O][Hg][c]1ccccc1 (stereo not given) [Phenylmercuric lactate] | 18 ± 3.8 | 22.2 ± 4 | 30.5 ± 52 |  |  |  |  |  |
| Oc1cccc2cccnc12 [8-Hydroxyquinoline citrate] | 2.93 ± 0.2 | 93 ± 1.8 | -44 ± 5.1 | -23.8 ± 16 | 14.9 ± 3.4 | -69.7 ± 19 | 4.83 |  |
| CCOC(=O)N1CCC(=C2c3ccc(Cl)cc3CCc3cccnc32)CC1 [Loratadine] |  |  |  | -4.11 ± 17 |  | 15 ± 1.3 |  |  |
| C=CC(=O)OCC(CC)CCCC (stereo not given) [2-Ethylhexyl acrylate] |  | -2.33 ± 4 | -6.31 ± 8.9 | -14.6 ± 7.2 |  | 6 ± 10 |  |  |
| C=C(C)C(=O)[O][Sn]([CH2]CCC)([CH2]CCC)[CH2]CCC [Tributyltin methacrylate] | 6.13 ± 1 | 26 ± 2.1 | 118 ± 40 | 14.7 ± 15 |  | 123 ± 84 |  | 2.74 |

From the supplement of paper PMC10933113
